Results published in patent US20060217294A1, “Compounds binding to p-selectin” (YAMANOUCHI EUROPE B.V., priority 2002, published 2006).
pIC50: −log10 of the molar value.

Chains of the proteins cited; added tags and fusions are not shown. A line that says so, or that is headed by a name, gives the form on record, which may keep a tag or linker.
UniProt P16109, with tags, fused parts or gaps limits assumed: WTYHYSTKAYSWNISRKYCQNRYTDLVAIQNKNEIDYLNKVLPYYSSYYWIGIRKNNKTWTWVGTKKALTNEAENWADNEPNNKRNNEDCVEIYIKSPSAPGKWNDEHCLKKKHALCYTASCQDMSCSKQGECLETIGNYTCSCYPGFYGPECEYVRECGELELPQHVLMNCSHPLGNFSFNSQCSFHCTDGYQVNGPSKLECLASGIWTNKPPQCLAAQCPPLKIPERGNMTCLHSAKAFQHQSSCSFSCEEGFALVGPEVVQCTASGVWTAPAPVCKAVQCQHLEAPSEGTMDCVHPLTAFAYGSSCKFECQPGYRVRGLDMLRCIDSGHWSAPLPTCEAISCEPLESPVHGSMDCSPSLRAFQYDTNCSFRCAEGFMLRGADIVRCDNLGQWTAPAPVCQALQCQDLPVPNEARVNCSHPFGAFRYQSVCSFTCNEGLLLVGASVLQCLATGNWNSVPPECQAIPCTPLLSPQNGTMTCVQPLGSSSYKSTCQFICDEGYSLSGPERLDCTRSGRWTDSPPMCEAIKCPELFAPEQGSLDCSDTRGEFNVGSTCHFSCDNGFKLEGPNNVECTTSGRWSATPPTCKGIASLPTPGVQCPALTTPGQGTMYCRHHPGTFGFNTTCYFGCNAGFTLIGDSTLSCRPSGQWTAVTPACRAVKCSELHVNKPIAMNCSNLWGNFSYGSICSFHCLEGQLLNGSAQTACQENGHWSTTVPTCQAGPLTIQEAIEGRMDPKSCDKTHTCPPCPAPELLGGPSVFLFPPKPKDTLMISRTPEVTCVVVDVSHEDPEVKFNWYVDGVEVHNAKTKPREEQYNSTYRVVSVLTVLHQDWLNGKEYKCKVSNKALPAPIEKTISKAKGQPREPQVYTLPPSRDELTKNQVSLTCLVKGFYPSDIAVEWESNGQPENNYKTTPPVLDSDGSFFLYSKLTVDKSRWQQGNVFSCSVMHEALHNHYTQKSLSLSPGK

Biological target: T1, human P-selectin (Homo sapiens, UniProt P16109)
T1 construct: IgG-Fc (fusion partner); purchased R&D Systems Europe Ltd., Abingdon, United Kingdom
Test: Competition assay with TM11-PO (competition ELISA)
Assay type: binding
Details: Table 2, average of at least 3 experiments at 8 concentrations, read-out: IC50 for human P-selectin as determined by competition Elisa
Method: Compounds according to the invention, as prepared in examples 1, 2 and 3 and some reference peptide compounds were assayed for its ability to inhibit TM11-PO binding to human P-selectin. […] For competition studies, a 96 wells microtiter plate (high binding, flat bottom, Costar, Corning, U.S.A.) was coated overnight at 4° C. with 10 μg/ml goat anti-human IgG (Fc specific) (Sigma-Aldrich, Zwijndrecht, the Netherlands) in coating buffer (50 mM NaHCO3, pH 9.6). Subsequently, wells were washed with assay buffer and incubated for 1 hour at 37° C. with blocking buffer (3% BSA in assay buffer). After washing with assay buffer, the wells were incubated for 2 hours at 37° C. with the human P-selectin IgG-Fc chimera (R&D Systems Europe Ltd., Abingdon, United Kingdom) (0.3 μg/ml). Subsequently, wells were washed with assay buffer and incubated for 1 hour at 4° C. with the TM11-PO complex. The wells were washed six times with washing buffer (0.1% Tween 20 in assay buffer). […] (TMB)/hydrogen peroxide (H2O2) (Pierce, Rochford, U.S.A.) was added and wells were incubated at room temperature for 15 minutes. The reaction was halted by addition of 2 M H2SO4 and the absorbance was measured at 450 nm.

pIC50: 4.57
SMILES: CC(=O)N[C@@H](Cc1c[nH]c2ccccc12)C(=O)N[C@H](C(=O)N[C@@H](CC(=O)O)C(=O)N[C@H](C(=O)O)C(C)C)C(C)C [Peptide 11, Ac-WVDV]
